Literature values, collected in patent US20100124560A1, “MULTI PORTION INTRA-ORAL DOSAGE FORM AND USE THEREOF” (McNEIL AB, priority 2008, published 2010).

SMILES: NC(=O)C[C@H](N)C(=O)O [Aspargine]
- Solubility in water: 25.1 g/kg
